SIRT5 block – inhibitors of human sirtuin-5 desuccinylase; Purified SirT5, succinyl-peptide AMC, trypsin-coupled fluorescence; Q9NXA8; actives 1.1% (n = 330,000); AID 652115; inhibition, % at 15 µM; in the data active = inhibition above about 15%
PDI inh – inhibitors of human protein disulfide isomerase; PDI insulin aggregation turbidity, A650, 90 min; actives 0.052% (n = 350,000); inhibition, % at 10 µM; P07237;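 active = mean inhibition across replicates of 30% or more, whatever share of single replicates reach that level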
S100A4 inh HTS – S100A4-myosin IIA interaction inhibition. inhibition, % at 10.7 µM. S100A4/TAMRA-MyoIIA peptide fluorescence polarization. AID 652163. actives 0.14% (n = 360,000). P26447;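 active = mean inhibition of at least 70% across replicates, with every replicate also reaching that level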
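Compound dosing: one dose per compound; test system: human S100A4 monomer with TAMRA-labelled myosin IIA peptide; probe or stimulus: TAMRA-labelled myosin IIA heavy-chain peptide probe, 5 nM; medium: HEPES buffer with Ca2+, pH 7.2; schedule: 5 min incubation before reading; benchmarks: neutral control DMSO, positive control TFP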
FGF22 binding – shifts melting point of recombinant human FGF22; recombinant FGF22 thermal shift, SYPRO orange fluorescence; percent of sucrose octasulfate shift, DMSO zero; activity (Tm shift, normalised), % at 9.99 µM; actives 1.5% (n = 340,000); AID 651658;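 active = mean Tm shift, scaled 0 neutral to 100 positive control, at about 1.3% or above, every replicate too, limit read from the data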
Yeast UUG start – alters start codon recognition fidelity in yeast. S. cerevisiae UUG-firefly luciferase reporter, luminescence/redox ratio. 350,000 tested, 0.13% active. activity score, % at 18.7 µM. AID 602363;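 active means replicate mean at a twofold rise or more, about +100% in these data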;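 further: firefly luciferase made from a UUG start codon reports start codon fidelity; reporter light over untreated wells divided by growth signal over untreated wells; some hits fall short of that in this replicate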
ERp5 block – inhibitors of human ERp5 | Q15084 | ERp5 insulin aggregation, absorbance 650 nm, 90 min | inhibition, % at 9.99 µM | actives 0.05% (n = 350,000) | AID 651711;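 active = mean replicate inhibition above about 25%, with every replicate also reaching it, limit read from the data, passing the limit was not always enough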
A number is an active result; . = inactive; / = no result given; ! = repeats disagree. In the library only some 2.2% were active in any assay of this set; here they are far more common.

SMILES | SIRT5 block | PDI inh | S100A4 inh HTS | FGF22 binding | Yeast UUG start | ERp5 block
Cn1nc(C(=O)N2CCN(S(=O)(=O)c3ccc(Cl)cc3)CC2)c2ccccc2c1=O | . | . | . | . | . | .
O=C(NCc1ccc(Cl)nc1)c1ccc2sc([C@@H]3O[C@H](CO)[C@H](O)[C@H](O)[C@H]3O)nc2c1 | 17 | . | . | . | . | .
Cc1cnc(CNC(=O)c2ccc3sc([C@@H]4O[C@H](CO)[C@H](O)[C@H](O)[C@H]4O)nc3c2)cn1 | / | . | . | . | . | .
O=C(O)CSCC(=O)Nc1ccc(Br)c(C(F)(F)F)c1 | 82 | . | . | . | . | .
C[C@H](CO)N1C[C@H](C)[C@@H](CN(C)S(C)(=O)=O)Oc2ccc(NC(=O)CCN3CCOCC3)cc2C1=O | 23! | . | . | . | . | .
C[C@H]1CN([C@@H](C)CO)C(=O)c2cc(NC(=O)CCN3CCOCC3)ccc2O[C@@H]1CN(C)Cc1ccc(C(F)(F)F)cc1 | . | / | . | . | / | .
C[C@H]1CN([C@@H](C)CO)C(=O)c2cc(NC(=O)CCN3CCOCC3)ccc2O[C@H]1CN(C)C(=O)Nc1ccc2c(c1)OCO2 | 20 | / | . | . | . | .
C[C@H]1CN([C@@H](C)CO)C(=O)c2cc(NC(=O)CCN3CCOCC3)ccc2O[C@H]1CN(C)S(C)(=O)=O | . | / | . | . | . | .
C[C@H]1CN([C@@H](C)CO)C(=O)c2cc(NC(=O)CCN3CCOCC3)ccc2O[C@@H]1CN(C)C(=O)Nc1ccc2c(c1)OCO2 | . | / | . | . | . | .
C[C@@H]1CN([C@@H](C)CO)C(=O)c2cc(NC(=O)CCN3CCOCC3)ccc2O[C@H]1CN(C)Cc1ccc(C(F)(F)F)cc1 | 26 | / | . | . | / | .
Nc1nnc(SCC(=O)Nc2ccc(Cl)c(C(=O)O)c2)s1 | 17 | . | . | . | / | .
CCc1ccc(CNC(=O)c2nn(C)c3c2CS(=O)(=O)c2ccccc2-3)cc1 | . | . | . | 68 | . | .
O=C(NC1CCCCC1)N[C@H]1C=C[C@@H](CC(=O)N2CCOCC2)O[C@H]1CO | . | / | . | . | / | .
CCOC(=O)C1=C(N)OC2=C(C(=O)CC(C)(C)C2)C1c1ccc(C)s1 (stereo unspecified) | . | . | . | 44 | / | .
CCn1c(SC)nnc1-c1nn(-c2ccccc2)ccc1=O | . | . | . | 43 | . | .
CO[C@H]1CN(C)C(=O)c2ccc(NC(=O)Nc3ccccc3F)cc2OC[C@H](C)NC[C@H]1C | . | / | . | . | . | .
CN(Cc1c(C(=O)N/N=C/c2ccccc2)nnn1-c1nonc1N)c1ccccc1 | . | . | . | . | . | .
CCCc1c(C(=O)N/N=C/C(C)=C/c2ccccc2)nnn1-c1nonc1N | . | . | . | . | . | .
CN(C)c1ccc(/C=N/NC(=O)c2nnn(-c3nonc3N)c2CN(C)c2ccccc2)cc1 | 17 | . | . | . | . | .
CCCN(CCC)Cc1c(C(=O)N/N=C/C(C)=C\c2ccccc2)nnn1-c1nonc1N | 16 | . | . | . | . | .
O=C(CCC(=O)N1CCN(S(=O)(=O)c2ccc(Cl)cc2)CC1)Nc1ccc(Cl)cc1Cl | . | . | . | 43 | . | .
Fc1ccccc1-c1cc2ccccc2cn1 | . | . | . | 44 | . | .
CCCC#Cc1ccc2c(c1)O[C@@H](CN(C)C(=O)C1CCCCC1)[C@H](C)CN([C@@H](C)CO)S2(=O)=O | / | / | / | / | . | /
C[C@H]1CN([C@@H](C)CO)S(=O)(=O)c2ccc(Br)cc2O[C@H]1CN(C)C(=O)Nc1ccccc1F | . | . | . | . | . | .
C[C@@H]1CN([C@H](C)CO)S(=O)(=O)c2ccc(C#Cc3ccccc3F)cc2O[C@@H]1CN(C)C(=O)Cc1ccccc1 | 20! | . | . | . | . | .
SMILES | SIRT5 block | PDI inh | S100A4 inh HTS | FGF22 binding | Yeast UUG start | ERp5 block
CCCC#Cc1ccc2c(c1)O[C@H](CN(C)C(=O)c1ccccc1F)[C@H](C)CN([C@@H](C)CO)S2(=O)=O | 19 | / | . | . | . | .
CCCC#Cc1ccc2c(c1)O[C@@H](CN(C)C(=O)c1ccccc1F)[C@H](C)CN([C@@H](C)CO)S2(=O)=O | . | / | . | . | . | .
COc1cccc(-c2ccc3c(c2)O[C@@H](CN(C)C(=O)c2ccccc2F)[C@H](C)CN([C@@H](C)CO)S3(=O)=O)c1 | 20 | / | . | . | . | .
CCCC#Cc1ccc2c(c1)O[C@@H](CN(C)C(=O)Nc1ccccc1F)[C@H](C)CN([C@H](C)CO)S2(=O)=O | 20 | / | . | . | / | .
CC(C)CC#Cc1ccc2c(c1)O[C@H](CN(C)C(=O)Nc1ccccc1F)[C@@H](C)CN([C@H](C)CO)S2(=O)=O | . | / | . | . | . | .
CCCC#Cc1ccc2c(c1)O[C@@H](CN(C)C(=O)Nc1ccccc1F)[C@H](C)CN([C@@H](C)CO)S2(=O)=O | 17 | / | . | . | / | .
CC(C)CC#Cc1ccc2c(c1)O[C@H](CN(C)C(=O)Nc1ccccc1F)[C@H](C)CN([C@H](C)CO)S2(=O)=O | 18 | / | . | . | . | .
C[C@H]1CN([C@@H](C)CO)S(=O)(=O)c2ccc(-c3ccccc3)cc2O[C@@H]1CN(C)C(=O)Nc1ccccc1F | . | / | . | . | . | .
CCCNC(=O)C[C@H]1CC[C@@H]2[C@H](COc3ccc(NC(=O)C4CCCC4)cc3C(=O)N2C)O1 | . | / | . | . | . | .
COCCSc1ccccc1C(=O)N1CCN(c2ccccc2)CC1 | . | . | . | . | . | .
COCCSc1ccccc1C(=O)N1CCc2ccccc2C1 | . | . | . | 43 | . | .
Cc1cccn2c(=O)c(C=NCCO)c(Nc3ccc(Cl)cc3)nc12 | . | / | . | 44 | / | .
O=C(CC1CC1)N[C@H]1CC[C@@H](CCNS(=O)(=O)c2ccc(Cl)cc2)O[C@H]1CO | . | / | . | . | . | .
C[C@@H]1CCCCO[C@H](CN(C)CC2CCCCC2)[C@H](C)CN([C@H](C)CO)C(=O)c2cc(NS(=O)(=O)c3cccs3)ccc2O1 | . | / | . | . | . | .
O=S1(=O)CC(c2ccccc2)=NN=C(c2ccccc2)C1 | / | . | . | 44 | / | .
O=C1CC(c2ccccc2)=NO1 | . | . | . | . | . | .
COc1cc(NC(=O)CSc2ncnc3scc(-c4ccccc4)c23)c(C(=O)O)cc1OC | . | . | . | 43 | / | .
COCC(=O)N(C)C[C@@H]1Oc2ncc(C#CC3(O)CCCC3)cc2C(=O)N([C@@H](C)CO)C[C@H]1C | . | / | . | . | . | .
CCOc1ccccc1NC(=O)C(OC(=O)c1ccc(NC(=O)CC#N)cc1)c1ccccc1 (stereo unspecified) | . | . | . | . | / | .
CC(OC(=O)c1ccc(NC(=O)CC#N)cc1)C(=O)NC(c1ccccc1)c1ccccc1 (stereo unspecified) | 16 | . | . | . | . | .

Screening results deposited in PubChem BioAssay by Broad Institute.
